{
  "source": "patent US4608364A",
  "about": "“Pharmaceutical agent for the treatment of diabetes mellitus” (Hoechst Aktiengesellschaft, priority 1983, dated 1986)",
  "origin": "cited, not measured here",
  "conditions": "cited from earlier work",
  "data": [
    {"substance": "insulin [reference compound]", "values": [
      {"measurement": "in vivo half life", "value": "about 7 minutes"}
    ]}
  ]
}
